Data as given in PMC5250654 (Clinical Drug Investigation, 2016).

Experiments:
[1] = single oral dose, all doses, fasted
[2] = multiple twice-daily dosing, fed conditions
[3] = target: T1, pervanadate-evoked phosphorylated SYK (pSYK) Y525 (Homo sapiens, UniProt P43405); test: cell-based
[4] = target: T1, pervanadate-evoked phosphorylated SYK (pSYK) Y525
[5] = test system: SYK versus other kinase targets; conditions: cited from earlier work
[6] = test system: anti-immunoglobulin E-stimulated CD63 expression on basophils; test: CD63 assay: ex vivo anti-IgE-stimulated CD63 expression on whole-blood basophils; format: cell-based, human; conditions: ≥600 mg twice daily, fasted

c1cn2cc(-c3ccc4cn[nH]c4c3)nc(Nc3ccc(N4CCOCC4)cc3)c2n1 [entospletinib, Entospletinib]
time to C max after administration (fasted conditions (comparison with fed)): 2 h
time of C max post-dose (multiple twice-daily doses, fasted): 2 to 3 h
time to achieve steady-state concentrations (twice-daily dosing): 3 to 4 days
time to C max after administration [1]: 2 to 3 h
time to C max after administration [2]: ≤ 4 h
EC50 [3]: 0.267 µM
time of maximal mean inhibition of pSYK expression post-dose ([4]; doses ≥600 mg twice daily): 4–5 h
inhibition of pSYK expression maintained at C trough ([4]; doses ≥600 mg twice daily, 12 h post-dose): ≥ 54%
maximal mean inhibition of pSYK expression ([4]; doses ≥600 mg twice daily, peak at 4–5 h post-dose): ≥ 72%
pSYK inhibition at peak concentrations ([4]; ≥600 mg twice daily, fasted): > 70%
pSYK inhibition at trough concentrations ([4]; ≥600 mg twice daily, fasted): > 50%
selectivity for SYK versus other kinase targets [5]: greater than 14 fold
CD63 inhibition at trough concentrations [6]: > 60% and > 50%

Several values for one entry are separate records, joined by “and”; a condition that tells them apart may be missing. Identical values can stand only once. Like-named read-outs stand apart in the source and are kept apart here.
